Among the data in ChEMBL document CHEMBL3425496, “Exploring experimental and computational markers of cyclic peptides: Charting islands of permeability” (Eur J Med Chem, 2015) are Papp and Papp A→B values, retold here.

Data set [1] in a line: Apparent permeability of the compound at 50 uM after 5 hrs by PAMPA method. The class given is physicochemical. In general terms: In PAMPA a lipid-coated filter parts donor from acceptor wells.
Data set [2] in a line: Apparent permeability from apical to basolateral side in human Caco2 cells by LC-MS analysis. To be noted: Caco-2. The class given is ADME, cell-based. (Caco-2 monolayers are a common model of the intestinal barrier.)

SMILES strings stand for the structures.

For `CC(C)C[C@@H]1NC(=O)[C@H](Cc2ccc(O)cc2)N(C)C(=O)[C@H]2CCCN2C(=O)[C@H](CC(C)C)NC(=O)[C@H](CC(C)C)N(C)C(=O)[C@@H](CC(C)C)N(C)C1=O`, the apparent permeability (Papp) – broadly, the rate of passage across a membrane or cell layer, normalised by area and donor concentration – at 5 h, 50 µM in data set [1] came out at 0.58 ×10⁻⁶ cm/s. Take `CC(C)C[C@@H]1NC(=O)[C@H](Cc2ccc(O)cc2)NC(=O)[C@H]2CCCN2C(=O)[C@H](CC(C)C)NC(=O)[C@H](CC(C)C)NC(=O)[C@@H](CC(C)C)NC1=O`: in data set [2], the Papp A→B (in general, how fast a substance crosses the layer from the apical side) was 1.23 ×10⁻⁶ cm/s. Also, the Papp at 5 h, 50 µM in data set [1] was 1.24 ×10⁻⁶ cm/s.

With `CC(C)C[C@@H]1NC(=O)[C@H](CC(C)C)NC(=O)[C@@H](CC(C)C)NC(=O)[C@H](Cc2ccc(O)cc2)NC(=O)[C@@H]2CCCN2C(=O)[C@H](CC(C)C)NC1=O`, the apical-to-basolateral permeability (Papp A→B) in data set [2] is 0.37 ×10⁻⁶ cm/s. Moreover, the Papp at 5 h, 50 µM in data set [1] was found to be 0.59 ×10⁻⁶ cm/s.

Consider `CC(C)C[C@@H]1NC(=O)[C@H](Cc2ccc(O)cc2)NC(=O)[C@H]2CCCN2C(=O)[C@@H](CC(C)C)NC(=O)[C@H](CC(C)C)NC(=O)[C@@H](CC(C)C)NC1=O`, for which the Papp A→B in data set [2] was 0.59 ×10⁻⁶ cm/s. Further, in data set [1], the Papp at 5 h, 50 µM is 0.11 ×10⁻⁶ cm/s. Turning to `CC(C)C[C@@H]1NC(=O)[C@H](Cc2ccc(O)cc2)NC(=O)[C@@H]2CCCN2C(=O)[C@@H](CC(C)C)NC(=O)[C@@H](CC(C)C)NC(=O)[C@@H](CC(C)C)NC1=O`, in data set [2], the apical-to-basolateral permeability (Papp A→B) was 1.43 ×10⁻⁶ cm/s. The Papp at 5 h, 50 µM in data set [1] worked out at 1.61 ×10⁻⁶ cm/s.

For the compound `CC(C)C[C@@H]1NC(=O)[C@@H](CC(C)C)NC(=O)[C@@H](CC(C)C)NC(=O)[C@@H](CC(C)C)NC(=O)[C@H](Cc2ccc(O)cc2)NC(=O)[C@@H]2CCCN2C1=O`, the apical-to-basolateral permeability (Papp A→B) in data set [2] is 0.14 ×10⁻⁶ cm/s. In addition, in data set [1], the Papp at 5 h, 50 µM was determined as 0.11 ×10⁻⁶ cm/s.

Turning to `CC(C)C[C@@H]1NC(=O)[C@@H](CC(C)C)NC(=O)[C@@H](CC(C)C)NC(=O)[C@H](Cc2ccc(O)cc2)NC(=O)[C@@H]2CCCN2C(=O)[C@@H](CC(C)C)NC1=O`, the Papp A→B in data set [2] is 12 ×10⁻⁶ cm/s. Besides, the apparent permeability coefficient (Papp) at 5 h, 50 µM in data set [1] is 3.49 ×10⁻⁶ cm/s. On to `CC(C)C[C@@H]1NC(=O)[C@@H](CC(C)C)N(C)C(=O)[C@H](CC(C)C)NC(=O)[C@H](Cc2ccc(O)cc2)NC(=O)[C@H]2CCCN2C(=O)[C@H](CC(C)C)NC1=O`, for which the Papp A→B in data set [2] turned out to be 1.68 ×10⁻⁶ cm/s.
